Data on one substance can be found in patent US20070098735A1, “Methods for the Elimination of Pathogens and Other Particulate Agents” (priority 2005, published 2007).

For assay [1], the system named is full thickness surgical wounds on the dorsum of BALB/cJ mice. Put plainly: Closure of full thickness surgical wounds, percent wound closure. The class given is in vivo. The settings on record: day 2 post surgery. The method, then:
Surgery and Treatment. Mice were anesthetized using Ketamine (2.0 mg/mouse) and Xylazine (0.1 mg/mouse) were administered intraperitoneally (IP) and the dorsal skin was shaved. After sterile prepping of the area, a full thickness circular wound, 8 mm diameter, was made on the dorsal skin using a disposable biopsy punch (Miltex Inc, York, Pa.) on the midline of the dorsum approximately at the iliac crest. The mice were then randomly assigned into the treatment groups. Initial wound measurements were performed while the mice were still anesthetized. Mice were then treated on days 0, 2, 4, and 6 unless otherwise specified. All agents used as treatment were diluted in 0.5 ml of PBS and injected using a 25-gauge needle in the subcutaneous space in the nape of the neck. […]
Measurements and Analysis. […] The wound surface area was determined by measuring the craniocaudal and lateromedial distances using vernier calipers in perpendicular axis on days 0, 2, 4, 6, 9, and 11 postoperatively unless noted. Changes in wound area were expressed as percent wound closure. […]
Full thickness surgical wounds were created on the dorsum of BALB/cJ mice as described in Methods. […] The wounds were measured on days 0, 2, 4, 6, 9, 11 unless otherwise noted. Wounds were measured serially, percent wound closure was calculated and plotted against time in order to quantitate the rate of healing by secondary intention. […]

The test system of assay [2] is Murine macrophage lines (RAW264.7, J774.A1 or RAW264NO-). Put plainly: Phagocytosis assay in vitro (uptake of Alexa Fluor 488-labeled particles). Type of assay: cell-based. The settings on record: equimolar to HSP70 100 μg/ml; BSA 100 μg/ml; concavalin A 6 μg/ml; adjuvants 10 μl/well; ADP, ATP 3 mM. The method, then:
Phagocytosis Assay in vitro. RAW 264.7, RAW264.7 (NO-) and J774A.1 cells were cultured in DMEM or RPMI (RAW NO-) with 10% FCS, harvested, and washed. 3×10^5 cells/well were incubated in serum-free Earle's minimal essential medium (EMEM) in a 24-well plate for 1 hour at 37° C. Alexa Fluor® 488-labeled particles (inert polystyrene microspheres; or yeast, Saccharomyces cerevisiae or Gram-negative bacteria, Escherichia coli, 40 particles/macrophage) were added and co-incubated in a dark environment for 60 minutes in serum free EMEM with or without HSPs, LPS, or control proteins. At the end of 60 minutes incubation, the plate was covered in a dark container on ice. Specific measures were taken to exclude the fluorescence that resulted from particles that were outside of the cell or sticking to the surface of the cell. […] Specifically, trypan blue (0.8 mg/ml) was added for 60 seconds and plates were analyzed immediately using FluorImager SI (Molecular Dynamics/Amersham). Since the emission of Alexa Fluor® 488, about 519 nm at an excitation of about 490 nm, falls within the absorbance range of trypan blue (475-675 nm), the fluorescence of the sample only represents the intracellular fluorescence. External or surface-bound fluorescence is quenched. Using Student's t test, the results were analyzed and P-values were calculated. […]

For assay [3], the system named is full thickness wounds of naïve mice. Kind of assay: Adoptive transfer of pre-treated RAW 264.7 macrophages into wounded mice, wound closure. Type of assay: in vivo. The settings on record: 400,000 macrophages pre-treated at 30 μg/dose; day 2 post surgery. On the procedure: Macrophage Cell Culture, Pre-treatment, and Adoptive Transfer. RAW 264.7 macrophages (ATCC) were grown as described by ATCC. Cells were harvested by gently scraping them from the cell culture flasks, centrifuged and washed once in cultured grade PBS. Cell viability was confirmed by trypan blue exclusion and 10^7 cells were treated with either 30 μg/0.5 ml of HSP70, lipopolysaccharide (LPS), mouse serum albumin (MSA), or in PBS at 4° C. for 1 hour. They were then washed 3 times with PBS, and were re-suspended to achieve a concentration of 400,000, 40,000, or 4,000 cells per 0.5 ml PBS. Adoptive transfer of these cells was performed by subcutaneous injections in the nape of the neck using a 25-gauge needle in mice that were wounded as previously described. Adoptive transfers were given on days 0, 2 and 4 post-operatively.
Macrophages were treated in vitro with either HSPs or non-HSP controls and transferred into naïve wounded mice (as described in Materials and Methods) to test if HSPs could in part mediate some of their activity through macrophages. Briefly RAW264.7 cells were treated in vitro with either of HSP70, MSA or LPS, (each at 30 μg/dose) or buffer 1 hour, washed 3 times and administered into naïve mice that had full thickness wounds (as indicated in FIG. 9A) on days 0, 2, and 4 postoperatively. […]

A further assay relates to RAW 264.7 macrophages. Put plainly: In vitro macrophage phagocytosis of wound debris. The class given is cell-based, murine. The settings on record: RAW264.7, labeled wound debris. The method, then: In vitro Macrophage Phagocytosis of Wound Debris. Fresh wounds were harvested from female BALB/cJ mice 6-8 weeks of age. Wounds were cut into small pieces in PBS with PMSF and dounced on ice. Large debris was removed by straining the wound lysate through a 0.7 μM mesh strainer then centrifuged at 1,200 rpm for 10 minutes. The pellet was washed twice with PBS, labeled with Alexafluor488 following manufacture's protocol (Molecular Probes, Eugene, Oreg.). The labeled wound debris was administered to 3×10^5 RAW 264.7 macrophages in serum-free medium in 24-well plates. Phagocytosis was performed either at 37° C. or 4° C. for 30 minutes after which 0.8 mg/ml Trypan blue was used to quench the fluorescence of the non-internalized wound debris. The plates analyzed with FluorImager plate reader.
Macrophage-mediated phagocytosis has been known to play a fundamental role in wound healing by clearing debris and neutrophils. Therefore it was tested whether HSP70 mediates some of its effects on wound healing through increased macrophage phagocytosis. […] Data is plotted as average mean fluorescence intensity from triplicate samples. *P values are the significant difference of mean fluorescence intensity at 37° C. compared to 4° C. in a treatment group. **P values are the significant differences of mean fluorescence intensity of HSP treated macrophages compared to medium treated macrophages. […]

Consider mouse serum albumin [MSA], for which the “wound healing on day 2” value in assay [1] (30 μg/dose) came to 22%. Further, in assay [1], the “wound closure of non-HSP controls compared to PBS control” value is “not significantly different to the PBS control”. In addition, in assay [2], the “uptake of labeled S. cerevisiae as compared to treatment with HSP70 (specificity controls)” value was “None of control proteins used enhanced uptake”. Further, the “wound healing on day 2 after adoptive transfer of pre-treated macrophages” value in assay [3] amounted to 26%. The “mean fluorescence intensity compared to medium control” value in the assay on RAW 264.7 macrophages is “not significantly different to the medium control”.
